# System: Nucleic Acid
# Test: Ratio of drug level in cerebrospinal fluid to unbound plasma concentration in Sprague-Dawley rat at 10 mg/kg, sc by LC-MS/MS analysis
# Assay type: ADME, organism-based
# Parameters: dose 10 mg/kg, route subcutaneous
# Conditions: in vivo
structure (smiles),measurement,value
CN(C)CCCC1(c2ccc(F)cc2)OCc2cc(C#N)ccc21 (racemic) [CITALOPRAM],Ratio,1.21

# From ChEMBL document CHEMBL3526130, “An evaluation of using rat-derived single-dose neuropharmacokinetic parameters to project accurately large animal unbound brain drug concentrations” (Drug Metab Dispos, 2012)
